Earlier results, collected in patent publication US11077184B2 (priority 2011, dated 2021).

Conditions: human, in vivo; cited from earlier work

## tripalmitoyl-S-glyceryl-cysteine [Pam3Cys]
  reported side effects: no reported side effects
